≈ marks a conversion by molar mass, not a printed value.
What was measured:
[1] = Drug excretion in BALB/c mouse urine at 2.5 mg/kg, ip administered as single dose measured after 5 mins by LC/MS analysis; assay type: ADME, organism-based; parameters: dose 2.5 mg/kg, route intraperitoneal; conditions: in vivo
[2] = Solubility of compound in water at 25 degC; assay type: physicochemical; conditions: buffer
[3] = Lipophilicity, log P of compound at 25 degC; assay type: physicochemical; conditions: octanol/water

For `CN1C(=O)N[C@H]2[C@@H]3NC(=O)c4ccc(Br)n4[C@@H]3C[C@]21O` (stereo in doubt; 1a) [AGELASTATIN A], the Drug excretion [1] was 217 µM, the solubility [2] was 640 µg/mL (≈ 1880 µM) and the logP [3] was 0.18.

Reference: ChEMBL document CHEMBL3297658, “Potent fluorinated agelastatin analogues for chronic lymphocytic leukemia: design, synthesis, and pharmacokinetic studies” (J Med Chem, 2014)
